From ChEMBL document CHEMBL1151566, “Cephem sulfones as inactivators of human leukocyte elastase. II. Keto-enol tautomerish in cephem-4-ketones” (Bioorg Med Chem Lett, 1992)

How the values were obtained:
[1] = target: T1, Neutrophil elastase (Homo sapiens) (UniProt P08246); assay: Inhibition of human leukocyte elastase II (HLE-II) as second order rate constant
T1 sequence (whole entry): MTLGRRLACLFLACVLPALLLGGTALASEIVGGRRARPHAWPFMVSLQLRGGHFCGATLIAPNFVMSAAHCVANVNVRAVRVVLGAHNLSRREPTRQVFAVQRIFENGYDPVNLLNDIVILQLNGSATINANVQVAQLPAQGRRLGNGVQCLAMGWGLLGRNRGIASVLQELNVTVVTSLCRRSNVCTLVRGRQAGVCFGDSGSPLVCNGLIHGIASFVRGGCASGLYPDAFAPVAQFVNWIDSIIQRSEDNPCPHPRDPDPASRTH

[2] = target: T1, Neutrophil elastase (Homo sapiens); assay: Inhibitory activity against human leukocyte elastase-II (HLE-II) expressed as second order inhibition rate constant

SMILES: CO[C@H]1C(=O)N2C(C(=O)C(C)(C)C)=C(CSc3nnnn3C)CS(=O)(=O)[C@H]12
- k on [1]: 19000 M⁻¹ s⁻¹

SMILES: CO[C@H]1C(=O)N2C(C(=O)c3ccccc3)=C(CSc3nnnn3C)CS(=O)(=O)[C@H]12
- k on [1]: 18000 M⁻¹ s⁻¹

SMILES: CO[C@H]1C(=O)N2C(C(=O)c3ccccc3)=C(CSc3nnnn3C)C(Sc3nnnn3C)S(=O)(=O)[C@H]12 (some centres undefined)
- k on [2]: 2200 M⁻¹ s⁻¹

SMILES: CO[C@H]1C(=O)N2C(C(=O)C(C)(C)C)=C(CSc3nnnn3C)C(Sc3nnnn3C)S(=O)(=O)[C@H]12 (some centres undefined)
- k on [1]: 26000 M⁻¹ s⁻¹
